Measured values from EP0528486A2 (MERCK & CO. INC., dated 1993).

Target: farnesyl-protein transferase from bovine brain (bovine, UniProt P29702 2-375; P49355 1-437)
Test: affinity chromatography on …-Affigel-10

binding result: binds
B1: nonapeptide KSLTGCVIM (peptide)
peptide: KSLTGCVIM
modifications: covalently bound to Affigel-10
